In patent US9588122B2, “Methods of treating cancer sensitive to anti-EGFR therapy and modifying treatment using peroxiredoxin 6 biomarker” (The Board of Trustees of the Leland Stanford Junior …, priority 2013, dated 2017):

Assays:
A431 xenografts = experiment: A431 subcutaneous xenograft study (Example 2); conditions: day 15; vs vehicle, P=0.008
HCC827 cells = experiment: PRDX6 sandwich ELISA of cell media and lysate after treatment; conditions: for PRDX6 in cell lysates: vs vehicle
A431 cells [1] = experiment: SILAC quantitative proteomics of gefitinib-treated cells; format: cell-based, human; conditions: domain III of EGFR extracellular domain
A431-ZDR tumors = experiment: Gefitinib-resistant A431-ZDR xenograft model (Example 1); format: in vivo, mice; conditions: A431-ZDR tumors from treated animals
Excerpt: . […] . Control animals received vehicle alone (20 animals).

HCC827 = experiment: Dose-dependent change in panel protein levels by western blot; conditions: 16 h
A431 cells [2] = experiment: PRDX6 sandwich ELISA of cell media and lysate after treatment; conditions: 100 nM vs vehicle
EGFR = conditions: cited from earlier work

COc1cc2ncnc(Nc3ccc(F)c(Cl)c3)c2cc1OCCCN1CCOCC1 [gefitinib]
mean phospho-EGFR levels in tumor lysates (A431 xenografts): significantly lower | PRDX6 level in cell media (HCC827 cells; 100 nM, 12 h P=0.0018, 24 h P=0.0003, 32 h P=0.0069 vs vehicle): increased substantially | PRDX6 in cell lysates (HCC827 cells; 12 hours (P=0.0442) and 24 hours (P=0.016)): significantly higher | PRDX6 in cell lysates (HCC827 cells; 32 hours (P=0.0129)): significantly lower | EGFR N-linked glycosylation at N356 (A431 cells [1]): dose-dependent decrease | EGFR in tumors (A431-ZDR tumors): down-regulated | BAG4 protein level change (HCC827): N.C. | CAD17 protein level change (HCC827): + | CBFB protein level change (HCC827): + | Claudin 1 protein level change (HCC827): N.C. | ELAVL-1 protein level change (HCC827): + | EpCAM protein level change (HCC827): + | HSPG2 protein level change (HCC827): N.C. | PDCD4 protein level change (HCC827): + | PRDX6 protein level change (HCC827): + | QARS protein level change (HCC827): + | S100A9 protein level change (HCC827): + | SERPINE1 protein level change (HCC827): + | SNX5 protein level change (HCC827): − | TESTICAN2 protein level change (HCC827): + | TNFAIP2 protein level change (HCC827): N.C. | TROP-2 protein level change (HCC827): + | PRDX6 level in cell media (A431 cells [2]; 12 h P=0.025, 24 h P=0.0062, 32 h P=0.0513): increase was significantly greater | mean PRDX6 in cell lysate (A431 cells [2]; any time point): no significant difference | phosphorylation of EGFR (EGFR): inhibits
